# In PubChem BioAssay AID1663 (Broad Institute, 2009):
# This is a selection; strong and weak results do not stand in their true shares. Some of these compounds have results that are not shown, active ones among them. Calls of active or inactive are those of the source.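 Rule for the calls: active = mean replicate score, as percent of positive control, at or above 50; inconclusive = mean below 50 but at least one replicate at or above 50; inactive = mean and every replicate below 50.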
# Assay: blockers of SFLLRN-triggered platelet ATP release – cell-based, MLPCN, human platelets, primary screen (AID 1663)
# Conditions: human platelet-rich plasma, SFLLRN dense granule ATP release, luminescence; hits give high values;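 compounds screened at 7.5 µM in platelet-rich plasma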
row,SMILES,inhibition
1,COc1cc(C(=O)NCC2(N(C)C)CCCCC2)c([N+](=O)[O-])cc1OC,inactive: -5.62%
2,CN(C)C1(CNC(=O)c2ccc(Br)cc2)CCCCC1,inactive: 13.4%
3,O=C(NCC1(N2CCCCC2)CCCCC1)c1cccc(Cl)c1,inactive: -1.58%
4,COc1cccc(C(=O)NCC2(N3CCCCC3)CCCCC2)c1,inactive: 0.482%
5,COc1ccc(Cl)cc1C(=O)NCC1(N(C)C)CCCCC1,inactive: -1.75%
6,O=C(OC1CN2CCC1CC2)C(CO)(c1ccccc1)c1ccccc1 (centres undefined),inactive: 4.7%
7,CN(C)c1cccc(C(=O)NCC2(N(C)C)CCCCC2)c1,inactive: 5.84%
8,CC(C)Oc1ccc(C(=O)NCC2(N(C)C)CCCCC2)cc1,inactive: 7.02%
9,COc1ccc(Br)c(C(=O)NCC2(N3CCCCC3)CCCCC2)c1,inactive: -1.52%
10,CN1[C@@H]2CC[C@H]1CC(OC(=O)C(O)(c1ccccc1)c1ccccc1)C2 (some centres undefined),inactive: -0.518%
11,O=C(NCC1(N2CCCCC2)CCCCC1)c1cc([N+](=O)[O-])ccc1Cl,inactive: -2.17%
12,Cc1ccc(C(=O)NCC2(N3CCCCC3)CCCCC2)cc1,inactive: 9.03%
13,CC(C)N1C(=O)CC2(CCN(CCOC(=O)C(O)(c3ccccc3)c3ccccc3)CC2)C1=O,inactive: -4.06%
14,CCN(CC)CC(C)C(C)OC(=O)C(O)(c1ccccc1)c1ccccc1 (centres undefined),inactive: -17.4%
15,COc1cc(SC)ccc1C(=O)NCC1(N(C)C)CCCCC1,inactive: 1.7%
16,Cc1ccccc1C(=O)NCC1(N2CCCCC2)CCCCC1,inactive: -5.66%
17,CN(C)c1ccc(C(=O)NCC2(N(C)C)CCCCC2)cc1,inactive: -1.93%
18,CN(C)C1CCCC1OC(=O)C(O)(c1ccccc1)c1ccccc1 (centres undefined),inactive: 8.81%
19,CCN1CCCC(OC(=O)C2(O)c3ccccc3C=Cc3ccccc32)C1 (centres undefined),inactive: -13.5%
20,Cc1cc(C(=O)NCC2(N3CCCCC3)CCCCC2)ccc1[N+](=O)[O-],inactive: 5.31%
21,O=C(NCC1(N2CCCCC2)CCCCC1)c1cccc(Br)c1,inactive: -7.3%
22,COc1ccc(C(=O)NCC2(N(C)C)CCCCC2)cc1,inactive: 3.83%
23,C=CCN1CCN(CCOC(=O)C(O)(c2ccccc2)c2ccccc2)CC1,inactive: -0.989%
24,O=C(NCC1(N2CCCCC2)CCCCC1)c1cc(F)c(F)cc1Cl,inactive: 15.8%
